## Antibody variant affinities, Ab-14 heavy chain, assay 1

The target is the same throughout: PDVDLGDISGINAS, from the HR2 region of SARS-CoV-2 spike.

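Phage display of a naive human antibody library on the peptide gave the parent. Variants in AAYL49 differ from the parent at up to three CDR positions; double and triple changes were sampled at random. In AlphaSeq, yeast of one mating type display the scFv and yeast of the other type display the target. After mating in shaken culture at 30 °C for 16 h, diploids were selected and their barcode pairs sequenced. The ratio of observed to expected reads was calibrated, replicate by replicate, on BCL2-family standards whose Kd was known from biolayer interferometry. There are three technical replicates.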

Parent scFv Ab-14: VH joined to VL by a (GGGGS)3 linker. Changes lie in the heavy chain CDRs alone.
VH: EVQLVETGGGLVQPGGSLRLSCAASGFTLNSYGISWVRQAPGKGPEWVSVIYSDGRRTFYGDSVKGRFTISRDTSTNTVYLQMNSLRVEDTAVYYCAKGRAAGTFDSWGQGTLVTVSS
VL: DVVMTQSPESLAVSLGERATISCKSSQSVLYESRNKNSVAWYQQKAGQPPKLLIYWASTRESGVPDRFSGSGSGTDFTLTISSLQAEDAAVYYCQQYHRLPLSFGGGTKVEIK

Substitutions are numbered in sequence along the VH above, starting at 1 (not Kabat).
Values are log10 of the apparent Kd in nM; lower means stronger binding.
Replicates are averaged; those with no signal do not enter the mean.
A pair that was not seen in that replicate is written "ND"; this usually means weak binding, but a binder can also be missed.
Three control strains display no target. For library AAYL49, 15% of the pairings with them gave a signal, with a median of 4.06 and one signal in twenty below 2.83, so weak values seen in few replicates may be background. For each scFv, signals with the empty controls are counted beside the result, with their mean in brackets.

changes,"replicates, log10 nM",mean log10 Kd (nM),empty controls
G33Q S35F,ND ND ND,ND,1 of 9 (3.31)
L29R V50W K65W,ND ND ND,ND,1 of 9 (3.73)
I34A G99V R100M,5.56 ND ND,5.56,1 of 9 (4.22)
I51V F105Q,4.01 2.69 4.24,3.64,0 of 9
S35P G55V G61Q,ND 3.90 ND,3.90,0 of 9
S53C G55A D106L,5.24 3.77 ND,4.51,0 of 9
I51Y F59W D106R,ND ND ND,ND,1 of 9 (3.21)
N30E S31R V64M,1.60 1.76 2.01,1.79,2 of 9 (4.28)
R57L F105H D106L,ND ND 4.19,4.19,1 of 9 (3.28)
G55S D62G S107T,2.90 ND 3.51,3.21,1 of 9 (2.49)
R56T R57G Y60Q,ND ND ND,ND,1 of 9 (2.81)
L29G T58K G103F,4.50 3.24 5.40,4.38,3 of 9 (3.40)
S31K T104G S107P,ND 3.28 5.54,4.41,4 of 9 (4.45)
I51G A101K,ND 4.15 ND,4.15,1 of 9 (4.00)
G26A A102E F105M,1.06 1.10 1.28,1.15,0 of 9
T104V,ND 3.39 3.90,3.64,0 of 9
F27T L29E G61T,ND ND ND,ND,0 of 9
G33A D62N T104E,3.56 4.03 5.63,4.40,6 of 9 (4.34)
G26K S53K F59H,6.33 4.39 4.19,4.97,4 of 9 (4.49)
G33N V50Y V64A,ND ND ND,ND,0 of 9
G26R L29P D106T,ND 3.63 ND,3.63,1 of 9 (4.16)
I34A S53V F59R,3.95 ND ND,3.95,1 of 9 (4.72)
Y32W G33I R100G,5.18 4.53 3.61,4.44,1 of 9 (3.12)
G33C S63V T104A,ND ND ND,ND,0 of 9
I51S S53W R57Q,ND 3.58 ND,3.58,1 of 9 (4.71)
Y60M D62Q F105S,4.88 ND 5.46,5.17,3 of 9 (4.54)
S35V G103L F105M,ND ND ND,ND,0 of 9
N30R I51A V64D,6.11 5.30 5.49,5.63,1 of 9 (4.26)
G33P G103Q D106W,ND 2.81 3.71,3.26,0 of 9
Y32C I34W R57H,ND ND 3.62,3.62,0 of 9
Y32D V64C T104V,ND ND ND,ND,0 of 9
G33C I51H Y52H,ND ND ND,ND,3 of 9 (3.70)
I34G R57D S107K,ND ND ND,ND,1 of 9 (4.20)
I34L I51T T58M,ND ND ND,ND,0 of 9
Y52T T58M S107R,ND ND ND,ND,0 of 9
I34E R56T A102W,2.86 ND ND,2.86,1 of 9 (3.68)
A102P T104P F105T,1.78 1.68 2.08,1.85,3 of 9 (5.17)
D54P V64G A102L,ND ND ND,ND,0 of 9
D62N A101N,1.87 1.78 1.88,1.84,1 of 9 (4.71)
T28L G33L A101W,3.87 4.22 5.29,4.46,7 of 9 (4.95)
D54W R57M T58D,ND 3.15 ND,3.15,2 of 9 (3.91)
G55S R57D,ND ND ND,ND,2 of 9 (3.70)
I34G V64G S107K,3.93 3.35 3.29,3.52,1 of 9 (4.34)
Y32H A102I F105E,3.70 3.72 ND,3.71,5 of 9 (4.11)
G33A S63V G103P,ND ND ND,ND,0 of 9
I51C R57V T104F,ND ND ND,ND,0 of 9
S31G S63E,ND ND 3.82,3.82,1 of 9 (1.61)
Y52H D54M V64Q,ND ND ND,ND,0 of 9
Y32Q T104L D106N,ND ND ND,ND,0 of 9
G26C F27K A101F,2.76 2.86 4.21,3.27,2 of 9 (3.12)
L29T K65Y,ND ND ND,ND,2 of 9 (3.82)

Parent in this assay: reference entry 0.65, copy in this library 4.11 (one replicate of three).

From the AlphaSeq antibody data of Engelhart et al. 2022 (doi:10.1038/s41597-022-01779-4), copy in the FLAb collection.